From article PMC3399519 (European Journal of Medicinal Chemistry, 2011)

The chains behind the UniProt entries cited, without tags or fusion partners.
UniProt Q92993, whole entry: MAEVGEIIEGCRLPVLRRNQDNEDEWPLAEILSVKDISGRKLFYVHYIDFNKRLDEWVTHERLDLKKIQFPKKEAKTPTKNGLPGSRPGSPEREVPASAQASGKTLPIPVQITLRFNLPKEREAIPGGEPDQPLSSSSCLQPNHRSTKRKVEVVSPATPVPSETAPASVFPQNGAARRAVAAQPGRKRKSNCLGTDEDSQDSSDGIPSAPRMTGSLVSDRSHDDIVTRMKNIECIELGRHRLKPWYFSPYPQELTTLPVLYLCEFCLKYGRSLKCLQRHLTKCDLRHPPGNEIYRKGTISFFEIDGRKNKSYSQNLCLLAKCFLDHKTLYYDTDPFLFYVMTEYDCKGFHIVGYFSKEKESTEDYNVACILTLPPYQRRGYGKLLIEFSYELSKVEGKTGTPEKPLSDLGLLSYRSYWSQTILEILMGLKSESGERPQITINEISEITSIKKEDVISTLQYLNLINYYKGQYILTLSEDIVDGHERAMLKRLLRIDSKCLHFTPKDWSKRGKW

Molecular target: Tip60 (Homo sapiens, UniProt Q92993)
Experiment: Steady-state kinetic characterization of Tip60 inhibition
Assay type: biochemical
Details: Kis (slope inhibition constant)

## CCCCCCCc1ccc(CCc2cccc(O)c2C(=O)O)cc1 [compound 20]
Varied Ac-CoA, 50 nM Tip60, 100 µM H4-20
  Ki: 54 µM
Varied H4-20, 25 nM Tip60, 2 µM Ac-CoA
  Ki: > 660 µM
